In data set [1] the test system is guinea pig ileum. The data set can be described thus: Antispastic or antispasmodic activity, BaCl2-induced contraction of guinea pig ileum (Magnus method). As to conditions: read-out: ED50 (antispastic or antispasmodic activity), 30° C., BaCl2 1 to 4.10^-4 M, drug one minute before BaCl2, inhibition of contraction.
Data set [2] can be described thus: Stability test, pH 7.4 (37° C., phosphate buffer; spectrodensitometric determination of 3-methylflavone-8-carboxylic acid from hydrolysis).

Among the data in patent publication US4550115A, “Certain piperidino-lower-alkylene esters of 3-methylflavone-8-carboxylates possessing smooth muscle relaxant activity” (Recordati S.A., Chemical & Pharmaceutical Company, priority 1981, dated 1985) are IC50, Stability test, pH 7.4, after 1 hour and Stability test, pH 7.4, after 3 hours values, retold here.

pIC50: −log10 of the molar value.

Turning to `Cc1c(-c2ccccc2)oc2c(C(=O)OC3CN4CCC3CC4)cccc2c1=O` (stereo not drawn), the pIC50 in data set [1] was 5.68.
For `Cc1c(-c2ccccc2)oc2c(C(=O)OC3CN4CCC3CC4)cccc2c1=O.Cl` (stereo not drawn), in data set [2] (phosphate buffer pH 7.4, after 1 hour), the Stability test, pH 7.4, after 1 hour amounted to 100%. The same compound showed a Stability test, pH 7.4, after 3 hours in data set [2] (phosphate buffer pH 7.4, after 3 hours) of 100%.
